Chains of the proteins cited; added tags and fusions are not shown. Residues count along the entry.
UniProt P42866, 337-398 limits assumed: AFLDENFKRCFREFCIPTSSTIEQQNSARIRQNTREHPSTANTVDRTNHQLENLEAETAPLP

In patent publication US20040142862A1, “Methods and compositions for modulating agonist-induced downregulation of G protein-coupled receptors” (The Regents of the University of California, priority 2002, published 2004):

What was measured:
cytoplasmic tail of MOR = molecular target: T1, cytoplasmic tail of MOR (Mus musculus, UniProt P42866); assay: GST affinity chromatography, binding to MOR cytoplasmic tail; settings: in vitro, GST fusion
T1 construct: GST; made in house
Experimental: Sequence homology to a non-mammalian protein was observed between the carboxyl-terminal regions of GASP1 and Vac8p, a yeast protein involved in late endocytic trafficking (26).
(§1) 24. Affinity chromatography was carried out as previously described (25).

V2 vasopressin receptor = molecular target: T2, V2 vasopressin receptor (Homo sapiens, UniProt P30518); assay: GST affinity chromatography, binding to V2 vasopressin receptor tail
T2 construct: GST; made in house
Experimental: The ability of GASP1 to modulate the endocytic sorting of other (non-opioid) GPCRs was examined next. […] The lack of GASP1 interaction with the V2 receptor tail is consistent with the remarkable ability of these receptors to remain in endocytic vesicles for a prolonged period of time after endocytosis without undergoing any detectable downregulation (34).
as §1

B1: cGASP1: carboxyl-terminal fragment of the GASP1 protein, corresponding to the C-terminal 497 residues of GASP1 (protein)
chain: SETEEETIFGSWFWDGKEVSEEAGPCCVSKPEDDEEMIVESWFWSRDKAIKETGTVATCESKPENEEGAIVGSWFEAEDEVDNRTDNGSNCGSRTLADEDEAIVGSWFWAGDEAHFESNPSPVFRAICRSTCSVEQEPDPSRRPQSWEEVTVQFKPGPWGRVGFPSISPFRFPKEAASLFCEMFGGKPRNMVLSPEGEDQESLLQPDQPSPEFPFQYDPSYRSVQEIREHLRAKESTEPESSSCNCIQCELKIGSEEFEELLLLMEKIRDPFIHEISKIAMGMRSASQFTRDFIRDSGVVSLIETLLNYPSSRVRTSFLENMIRMAPPYPNLNIIQTYICKVCEETLAYSVDSPEQLSGIRMIRHLTTTTDYHTLVANYMSGFLSLLATGNAKTRFHVLKMLLNLSENLFMTKELLSAEAVSEFIGLFNREETNDNIQIVLAIFENIGNNIKKETVFSDDDFNIEPLISAFHKVEKFAKELQGKTDNQNDPEGDQEN
B1 was tested, and the “binding to the cytoplasmic tail of MOR” value (cytoplasmic tail of MOR) was “bound relatively weakly”.

B2: GASP1: G protein-coupled receptor-associated sorting protein-1, 1395-residue predicted protein binding the DOR cytoplasmic tail (protein)
chain: MTGAEIESGAQVKPEKKPGEEVVGGAEIENDVPLVVRPKVRTQAQIMPGARPKNKSKVMPGASTKVETSAVGGARPKSKAKAIPVSRFKEEAQMWAQPRFGAERLSKTERNSQTNIIASPLVSTDSVLVAKTKYLSEDRELVNTDTESFPRRKAHYQAGFQPSFRSKEETNMGSWCCPRPTSKQEASPNSDFKWVDKSVSSLFWSGDEVTAKFHPGNRVKDSNRSMHMANQEANTMSRSQTNQELYIASSSGSEDESVKTPWFWARDKTNTWSGPREDPNSRSRFRSKKEVYVESSSGSEHEDHLESWFGAGKEGKFRSKMRAGKEANNRARHRAKREACIDFMPGSIDVIKKESCFWPEENANTFSRPMIKKEARARAMTKEEAKTKARARAKQEARSEEEALIGTWFWATDESSMADEASIESSLQVEDESIIGSWFWTEEEASMGTGASSKSRPRTDGERIGDSLFGAREKTSMKTGAEATSESILAADDEQVIIGSWFWAGEEVNQEAEEETIFGSWFWVIDAASVESGVGVSCESRTRSEEEEVIGPWFWSGEQVDIEAGIGEEARPGAEEETIFGSWFWAENQTYMDCRAETSCDTMQGAEEEEPIIGSWFWTRVEACVEGDVNSKSSLEDKEEAMIPCFGAKEEVSMKHGTGVRCRFMAGAEETNNKSCFWAEKEPCMYPAGGGSWKSRPEEEEDIVNSWFWSRKYTKPEAIIGSWLWATEESNIDGTGEKAKLLTEEETIINSWFWKEDEAISEATDREESRPEAEEGDIVGSWFWAGEEDRLEPAAETREEDRLAAEKEGIVGSWFGAREETIRREAGSCSKSSPKAEEEEVIIGSWFWEEEASPEAVAGVGFESKPGTEEEEITVGSWFWPEEEASIQAGSQAVEEMESETEEETIFGSWFWDGKEVSEEAGPCCVSKPEDDEEMIVESWFWSRDKAIKETGTVATCESKPENEEGAIVGSWFEAEDEVDNRTDNGSNCGSRTLADEDEAIVGSWFWAGDEAHFESNPSPVFRAICRSTCSVEQEPDPSRRPQSWEEVTVQFKPGPWGRVGFPSISPFRFPKEAASLFCEMFGGKPRNMVLSPEGEDQESLLQPDQPSPEFPFQYDPSYRSVQEIREHLRAKESTEPESSSCNCIQCELKIGSEEFEELLLLMEKIRDPFIHEISKIAMGMRSASQFTRDFIRDSGVVSLIETLLNYPSSRVRTSFLENMIRMAPPYPNLNIIQTYICKVCEETLAYSVDSPEQLSGIRMIRHLTTTTDYHTLVANYMSGFLSLLATGNAKTRFHVLKMLLNLSENLFMTKELLSAEAVSEFIGLFNREETNDNIQIVLAIFENIGNNIKKETVFSDDDFNIEPLISAFHKVEKFAKELQGKTDNQNDPEGDQEN
With B2 the “binding to the V2 vasopressin receptor tail” value (V2 vasopressin receptor) was “bound very weakly”.
